# Source: patent US11413333B2, “Composition containing inducer of SIRT1 expression for preventing or treating sepsis or septic shock” (STEMDR INC., priority 2011, dated 2022)
# B1: interferon beta (protein, UniProt P01574 22-187, looked up)
# Interferon beta: MSYNLLGFLQRSSNFQCQKLLWQLNGRLEYCLKDRMNFDIPEEIKQLQQFQKEDAALTIYEMLQNIFAIFRQDSSSTGWNETIVENLLANVYHQINHLKTVLEEKLEKEDFTRGKLMSSLHLKRYYGRILHYLKAKEYSHCAWTIVRVEILRNFYFINRLTGYLRN
# notes: cytokine that promotes the expression of SIRT1; SIRT1 expression inducer
# Tests used:
# SIRT1 protein expression = test: SIRT1 expression by western blot after treatment of LPS and interferon beta to macrophage originated from mouse marrow; format: cell-based, C57BL/6 mouse; conditions: interferon beta 100 units/ml (of 0, 100, 200, 500 units/ml)
# Experimental: Femur and tibia marrow cells of C57BL/6 mouse have been differentiated in culture solution containing M-CSF (10 ng/ml), and then have been used as mouse macrophage. LPS (0, 100, 500, 1000 ng/ml) and interferon beta (0, 100, 200, 500 units/ml) have been injected to the macrophage by concentrations, and the SIRT1 expression amount has been compared by western blot. Further, the SIRT1 protein expression amount when LPS has been injected along with IFN-β blocking antibody has been measured.
# mouse sepsis model (CLP) = test: Survival rate in mouse sepsis model induced by cecal ligation and Puncture (CLP); format: in vivo; conditions: interferon beta 1000 units per 20 g tail vein two hours after CLP operation
# Experimental: In a mouse sepsis model, which is induced through cecal ligation and Puncture (CLP) surgery, the following experiment has been performed to check the survival rate change according to the injection of SIRT1 and interferon beta.
# Adenovirus-LacZ or adenovirus-SIRT1 has been injected into the mouse tail vein by 3×10^8 pfu. After 24 hours, the anesthetic is injected into the abdominal cavity, and the sepsis has been caused through CLP. That is, after the center of the abdomen of the mouse is cut, the appendix is exposed to the outside so that the end of the ileocecal valve is ligated by the silk suture, two holes are made using a needle, and then a certain amount of fecal materials are discharged. The appendix as well as fecal materials were inserted again into the abdomen, then the abdomen was stitched, and then a physiological salt solution was injected through a hypodermic injection. After two hours of SLP operation, interferon beta 1000 units or the same amount of salt solution per 20 g of the mouse weight have been injected into the mouse tail vein.
# mouse injected with LPS = test: Survival rate of mouse after injecting LPS after pre-treatment of adenovirus-SIRT1 or interferon beta; format: in vivo; conditions: interferon beta 1000 units per 20 g tail vein, LPS 15˜20 mg/kg after 30 minutes
# Experimental: Adenovirus-LacZ, which is a control gene delivery system, and adenovirus-SIRT1, which is the SIRT1 gene delivery system, are injected into the mouse tail vein by 3×10^8 pfu (plaque forming unit), and LPS 15˜20 mg/kg after 48 hours. Then the survival rate of the mouse has been observed for 10 days.
# Further, interferon beta 1000 units or the same amount of salt solution per 20 g of the mouse weight is injected into the mouse tail vein, and LPS 15˜20 mg/kg has been injected after 30 minutes. Then the survival rate of the mouse has been observed for 10 days.
# [1] = tested on: macrophage originated from the mouse marrow; test: Secretion of pro-inflammatory and anti-inflammatory cytokines by LPS-treated macrophage (Elisa); format: cell-based; conditions: LPS 100 ng/ml 24 hours, adenovirus-SIRT1 10,000 MOI or interferon beta 100 units/ml, cell culture medium
# Experimental: After infecting the macrophage with the adenovirus-SIRT1 by 10,000 MOI (multiplicity of infection), LPS 100 ng/ml has been injected for 24 hours. Further, LPS 100 ng/ml has been used along with interferon beta 100 units/ml for 24 hours, and then the amount of secretion of pro-inflammatory and anti-inflammatory cytokines of the cell culture medium has been measured by Elisa. The experiment has been performed three times, and the result has been expressed by the average±standard deviation.
molecule,measurement,setting,value
B1,SIRT1 expression,SIRT1 protein expression,most significantly increased
same,survival rate,mouse sepsis model (CLP),76%
same,survival rate of the mouse after 10 days,mouse injected with LPS,70%
same,IL-6 decrease relative to LPS treatment,[1],54%
same,IL-10 increase,[1],4.7 times
same,MCP-1 change relative to LPS treatment,[1],slightly decreased
same,TNF-α decrease relative to LPS treatment,[1],29%
